Data as given in patent US11639373B2, “Therapeutic and diagnostic agents for cancer” (TECHNISCHE UNIVERSITÄT MÜNCHEN, priority 2018, dated 2023).
Where two headings read alike, the source gives them in different places.

Sequences of proteins named here, by UniProt entry; tags and fusion partners are left off.
UniProt P70658, whole entry: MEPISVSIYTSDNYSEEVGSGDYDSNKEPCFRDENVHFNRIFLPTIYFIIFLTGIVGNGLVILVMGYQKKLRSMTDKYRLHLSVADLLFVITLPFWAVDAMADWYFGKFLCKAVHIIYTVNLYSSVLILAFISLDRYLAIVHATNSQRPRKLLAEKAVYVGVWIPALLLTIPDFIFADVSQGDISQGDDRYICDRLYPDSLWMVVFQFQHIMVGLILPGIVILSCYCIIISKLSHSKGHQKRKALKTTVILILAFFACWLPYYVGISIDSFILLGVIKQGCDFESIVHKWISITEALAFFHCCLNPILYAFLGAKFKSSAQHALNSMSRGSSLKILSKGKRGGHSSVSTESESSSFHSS
UniProt P61073, whole entry: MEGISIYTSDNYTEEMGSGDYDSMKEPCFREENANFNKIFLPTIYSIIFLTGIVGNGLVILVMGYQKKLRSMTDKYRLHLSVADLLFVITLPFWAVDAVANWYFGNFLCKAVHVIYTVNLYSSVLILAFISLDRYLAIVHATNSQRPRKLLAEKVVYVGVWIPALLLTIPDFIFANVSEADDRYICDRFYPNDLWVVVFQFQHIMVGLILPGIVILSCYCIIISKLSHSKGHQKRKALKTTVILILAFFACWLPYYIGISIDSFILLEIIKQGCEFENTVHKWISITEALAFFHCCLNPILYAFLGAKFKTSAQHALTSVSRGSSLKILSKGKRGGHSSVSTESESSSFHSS

Tests used:
[1] = target: T1, murine CXCR4 (Mus musculus, UniProt P70658); assay: Competitive binding assay to murine CXCR4, Eμ-Myc1080 cells, [125I]CPCR4.3 radioligand; details: Eμ-Myc1080 mouse B-cell lymphoma cells
T1 construct: The murine CXCR4 expressing cell line Ep-Myc1080; endogenous in cells; host or cells: Eμ-Myc1080 mouse B-cell lymphoma cells
Protocol: Competition studies addressing the human CXCR4 were performed using CXCR4 positive Jurkat human T-cell leukemia cells and ^125I-FC131 (^125I-2), addressing the murine CXCR4, Ep-Myc1080 mouse B-cell lymphoma cells and ^125I-CPCR4.3 (Demmer et al. A Conformationally Frozen Peptoid Boosts CXCR4 Affinity and Anti-HIV Activity. Angewandte Chemie International Edition. 2012; 51:8110-8113) as the radioligand were utilized as described previously (Poschenrieder et al., The influence of different metal-chelate conjugates of pentixafor on the CXCR4 affinity. EJNMMI research. 2016; 6:1-8).
The binding affinities (IC50) of the respective ^natLu and ^natGa derivatives towards the human and murine CXCR4 (Table 1a) were determined in a competitive binding assay using Jurkat human T-cell leukemia cells or Ep-Myc1080 mouse B-cell lymphoma cells (4.0 and 2.0*10^5 cells/well, 2 h, RT) and ^125I-2 or ^125I-CPCR4.3 (0.1 nM) as the radioligand. To be able to assess the effect of structural modifications in the SAR study on CXCR4 binding affinity, data for ^natGa-pentixafor (^natGa-3) and ^natLu-pentixather (^natLu-4) are also included in Table 1a.

[2] = target: T2, human CXCR4 (Homo sapiens, UniProt P61073); assay: Competitive binding assay to human CXCR4, Jurkat cells, [125I]FC131 radioligand; details: [^125I]FC131 0.1 nM, RT 2 h, mean ± SD (n = 3)
T2 construct: using CXCR4 positive Jurkat human T-cell leukemia cells; endogenous in cells; host or cells: Jurkat human T-cell leukemia cells

[3] = Table 1c, read-out: IC50 [nM] to mCXCR4
[4] = ^natLu complexes, mean ± SD (n = 3), 120 min, read-out: mIC50[nM] ^natLu complexes and murine CXCR4
[5] = ^natGa complexes, read-out: IC50 [nM] for ^natGa-complexes and human CXCR4
[6] = ^natLu complexes, read-out: IC50 [nM] for ^natLu-complexes and human CXCR4

cyclo[i-yorn′(DOTA-rG-(4-amino)benzoyl-)RNaIG [P4]
IC50 [1, 3]: 48.5 ± 0.5 nM | IC50 [1, 4]: 37.1 ± 2.9 nM

cyclo(D-3-iodo-Tyr^1-D-[NMe]Orn^2(AMBS-DOTA)-Arg^3-Nal^4-Gly^5) [compound 4, reference compound]
IC50 [2, 5]: 6.1 ± 1.5 nM | IC50 [1, 4]: 567 ± 62 nM

cyclo[i-yorn′([^natLu]DOTA-dapG-(4-amino)benzoyl-)RNaIG [^natLu-P2]
IC50 [2, 6]: 3.5 ± 0.3 nM

cyclo[yorn′([^natGa]DOTA-ra-(4-amino)benzoyl-)RNaIG [^natGa-P5b]
IC50 [2, 5]: 0.4 ± 0.1 nM

cyclo[i-yorn′([^natLu]DOTA-ra-(4-amino)benzoyl-)RNaIG [^natLu-P5]
IC50 [2, 6]: 1.7 ± 0.6 nM | IC50 [1, 4]: 48.5 ± 0.5 nM

cyclo[i-yorn′(DOTA-ra-(4-amino)benzoyl-)RNaIG [P5]
IC50 [1, 3]: 61.4 ± 17 nM | IC50 [1, 4]: 48.5 ± 0.5 nM
